Experimental data taken from patent US20050002951A1, “Novel method of inducing antigen-specific t cells” (priority 2001, published 2005).

Tested on: WT1-C1498 cells
Design: species or system C57BL/6 mice
Conditions: mouse, in vivo

Arg Met Phe Pro Asn Ala Pro Tyr Leu [WT1 peptide]
day on which all of the mice were dead: 58 days
disease free survival rate: 0%
